Test [1] addresses T1, Mineralocorticoid receptor (Homo sapiens, UniProt P08235).
T1 sequence (P08235 whole entry): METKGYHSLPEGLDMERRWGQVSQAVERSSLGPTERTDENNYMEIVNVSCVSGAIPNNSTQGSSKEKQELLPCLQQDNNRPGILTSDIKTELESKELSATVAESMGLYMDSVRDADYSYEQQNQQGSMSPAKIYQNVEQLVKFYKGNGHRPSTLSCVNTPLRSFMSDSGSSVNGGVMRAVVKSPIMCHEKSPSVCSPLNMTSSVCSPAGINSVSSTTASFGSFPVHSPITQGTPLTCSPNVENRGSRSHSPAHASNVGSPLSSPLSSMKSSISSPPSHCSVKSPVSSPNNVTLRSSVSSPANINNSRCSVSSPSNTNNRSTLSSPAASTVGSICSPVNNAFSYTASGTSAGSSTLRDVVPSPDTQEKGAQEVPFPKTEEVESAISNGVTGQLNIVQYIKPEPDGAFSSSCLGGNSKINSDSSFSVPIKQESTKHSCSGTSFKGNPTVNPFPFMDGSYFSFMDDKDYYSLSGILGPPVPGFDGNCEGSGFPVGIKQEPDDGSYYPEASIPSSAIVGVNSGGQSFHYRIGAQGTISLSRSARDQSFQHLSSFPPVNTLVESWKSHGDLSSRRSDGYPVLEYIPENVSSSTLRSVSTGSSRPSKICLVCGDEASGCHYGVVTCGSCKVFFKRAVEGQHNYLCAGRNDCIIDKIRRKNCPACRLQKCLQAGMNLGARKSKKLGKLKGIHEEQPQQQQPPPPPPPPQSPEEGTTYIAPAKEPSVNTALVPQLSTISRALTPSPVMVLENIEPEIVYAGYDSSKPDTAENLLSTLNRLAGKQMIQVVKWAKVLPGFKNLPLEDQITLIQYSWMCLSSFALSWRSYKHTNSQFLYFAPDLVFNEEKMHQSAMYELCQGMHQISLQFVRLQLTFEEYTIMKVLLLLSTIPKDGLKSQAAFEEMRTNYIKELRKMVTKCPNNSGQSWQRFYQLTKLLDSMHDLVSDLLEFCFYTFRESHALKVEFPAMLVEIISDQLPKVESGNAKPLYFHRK

The target in test [2] is T1, Mineralocorticoid receptor. The source holds these as a separate data set.
Another test has as its target T2, Glucocorticoid receptor (Homo sapiens, UniProt P04150).
T2 sequence (P04150 whole entry): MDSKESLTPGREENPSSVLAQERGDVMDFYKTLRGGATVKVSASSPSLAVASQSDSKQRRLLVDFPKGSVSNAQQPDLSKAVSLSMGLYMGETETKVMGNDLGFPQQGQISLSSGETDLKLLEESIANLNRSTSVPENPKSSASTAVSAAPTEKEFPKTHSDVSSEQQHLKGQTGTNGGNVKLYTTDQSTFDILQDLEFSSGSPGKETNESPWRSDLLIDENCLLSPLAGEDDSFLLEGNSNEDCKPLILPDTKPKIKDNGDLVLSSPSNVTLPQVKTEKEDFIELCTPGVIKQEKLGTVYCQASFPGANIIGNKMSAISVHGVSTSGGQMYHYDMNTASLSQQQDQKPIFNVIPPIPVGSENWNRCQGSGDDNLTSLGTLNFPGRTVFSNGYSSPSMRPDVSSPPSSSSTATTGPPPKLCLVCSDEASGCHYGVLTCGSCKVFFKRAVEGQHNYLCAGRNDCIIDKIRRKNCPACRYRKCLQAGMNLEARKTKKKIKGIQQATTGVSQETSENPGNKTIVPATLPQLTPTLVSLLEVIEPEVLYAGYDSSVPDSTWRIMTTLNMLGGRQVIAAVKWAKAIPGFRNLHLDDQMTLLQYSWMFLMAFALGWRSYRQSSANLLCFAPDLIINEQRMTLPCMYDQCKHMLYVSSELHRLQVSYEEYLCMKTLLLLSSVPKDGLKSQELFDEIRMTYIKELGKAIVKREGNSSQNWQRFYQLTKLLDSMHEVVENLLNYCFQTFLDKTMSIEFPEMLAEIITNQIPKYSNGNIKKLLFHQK

The target in test [3] is T1, Mineralocorticoid receptor. This is another data set of the same source.

Some results are limits rather than exact numbers.

The values that follow come from ChEMBL document CHEMBL4422622, “Identification of Mineralocorticoid Receptor Modulators with Low Impact on Electrolyte Homeostasis but Maintained Organ Protection” (J Med Chem, 2019).

One may read the Ki as a dissociation constant, usually derived from enzyme kinetics or from competition with a known ligand. The term IC50 denotes the point on the concentration scale where inhibition reaches its midpoint. A higher IC50 goes with lower potency. Turning to `NC(=O)C[C@H]1COc2cc(Cl)ccc2N1C(=O)c1ccc2c(c1)NC(=O)CO2`, in test [1], the Ki is 3.98 nM. The compound further had an IC50 in test [2] of 50.1 nM.
In the same order, the values of `CNC(=O)C[C@H]1COc2ccccc2N1C(=O)c1ccc2c(c1)NC(=O)CO2` are 50.1 nM and 631 nM.
As for `CNC(=O)C[C@H]1COc2cc(Cl)ccc2N1C(=O)c1ccc2c(c1)NC(=O)CO2`, the Ki on Glucocorticoid receptor was 316 nM. The same compound displayed a half-maximal inhibitory concentration (IC50) in test [3] greater than 10000 nM.
For `CNC(=O)C[C@H]1COc2cc(Br)ccc2N1C(=O)c1ccc2c(c1)NC(=O)CO2`, the affinity in test [1], expressed as Ki, was 2.51 nM. This compound also gave an IC50 in test [2] of 50.1 nM.
